This passage reports decrease of the viscosity of CF artificial mucus after 90 s by 5 units of DNase1L2 (20 ng/μL; 690 nM) in the presence of 0.2 mg/mL actin (~80% without actin) results from PMC8002113.

The target in the experiment is Recombinant human DNase1L2, short isoform (DNase1L2-S) (human) (UniProt Q92874).

As for “G-actin from rabbit muscle (from UniProt P68135 1-377) (natural protein)”, the decrease of the viscosity of CF artificial mucus after 90 s by 5 units of DNase1L2 (20 ng/μL; 690 nM) in the presence of 0.2 mg/mL actin (~80% without actin) came out at 50%.
